{"source": "paper PMC5618191", "about": "“The Natural Fungal Metabolite Beauvericin Exerts Anticancer Activity In Vivo: A Pre-Clinical Pilot Study” (Toxins, 2017)", "key": {"[1]": {"tested_on": "CT-26-derived tumor allografts", "test": "CT-26 allograft mouse model", "assay_type": "in vivo, BALB/c mice", "conditions": "5 mg/kg bw/day i.p.", "protocol": "(§1) For the allograft experiment, 4 × 10^5 CT-26 cells were resuspended in 50 µL RPMI medium and injected subcutaneously into the right flank of eight, 6–8 weeks old, male BALB/c mice that were obtained from Harlan Laboratories (San Pietro al Natisone, Italy). Likewise, in the xenograft experiment, 1 × 10^6 KB-3-1 cells in 50 µL RPMI medium were injected subcutaneously into the right flank of eight, 6–8 weeks old, male CB-17/IcrHanHsd-Prkdc severe combined immunodeficiency (SCID) mice. Of each group, four animals were randomly assigned to the control or to the treatment group. […] Effects of the treatment were assessed by daily recording of tumor size with a microcaliper and parameters indicating the animals’ overall health condition (e.g., body weight, fatigue, grooming, ragged coat, food and fluid consumption). Tumor volumes (mm^3) were calculated using the formula: (length × width^2)/2. […]\n(§2) From each mouse from both the control (n = 4) and the treatment group (n = 4), tissue samples were formalin-fixed, paraffin-embedded and used to prepare serial 3 µm sections. […] Numbers of the three cell fractions were analyzed in a blinded setup in at least four images of H/E-stained tumor sections, taken under a 40 × objective microscope lens. […]"}, "[2]": {"tested_on": "KB-3-1-derived tumor xenografts", "test": "KB-3-1 xenograft mouse model", "assay_type": "in vivo, CB-17/SCID mice", "conditions": "5 mg/kg bw/day", "protocol": "as §1, §2"}, "[3]": {"test": "Beauvericin distribution by LC-MS/MS, allograft model", "assay_type": "in vivo, BALB/c mice"}, "[4]": {"test": "Beauvericin distribution by LC-MS/MS, xenograft model", "assay_type": "in vivo, CB-17/SCID mice"}, "[5]": {"test": "Serum AST, ALT, bilirubin and creatinine (Reflotron Plus)", "assay_type": "in vivo, CB-17/SCID mice"}, "[6]": {"parameters": "method as in PMID 26892719", "conditions": "after three days of treatment; cited from earlier work"}, "[7]": {"conditions": "5 mg/kg bw/day i.p., 9 days of treatment"}, "[8]": {"conditions": "5 mg/kg bw/day, two cycles, one day after therapy"}, "[9]": {"conditions": "end of the treatment period (one day after therapy), detection limit"}, "[10]": {"conditions": "two weeks after the last treatment"}}, "data": [{"substance": "beauvericin", "values": [{"measurement": "Systemic toxicity (behavior monitoring)", "setting": "[1]", "result": "no indication for beauvericin-attributed systemic toxicity"}, {"measurement": "Adverse treatment effects (body weight, behavior)", "setting": "[2]", "result": "did not show any indications for possible adverse treatment effects"}, {"measurement": "Beauvericin level in adipose tissue", "setting": "[3]; [7]", "result": "3701.3 ± 1091.5", "unit": "µg/kg"}, {"measurement": "Beauvericin level in colon", "setting": "[3]; [7]", "result": "178.5 ± 170.1", "unit": "µg/kg"}, {"measurement": "Beauvericin level in serum", "setting": "[3]; [7]", "result": "35.7 ± 13.5", "unit": "µg/kg"}, {"measurement": "Beauvericin level in CT-26 tumors", "setting": "[3]; 5 mg/kg bw/day i.p., 9 days of treatment, 24 h after last injection", "result": "81.0 ± 46.6", "unit": "µg/kg"}, {"measurement": "Accumulation in adipose tissue compared to serum", "setting": "[3]; allograft model", "result": 103.6, "unit": "fold"}, {"measurement": "Accumulation in colon compared to serum", "setting": "[3]; allograft model", "result": 4.9, "unit": "fold"}, {"measurement": "Accumulation in feces compared to serum", "setting": "[3]; allograft model", "result": 19.5, "unit": "fold"}, {"measurement": "Urine level compared to serum", "setting": "[3]; allograft model", "result": 0.08, "unit": "fold"}, {"measurement": "Beauvericin level in KB-3-1 tumor", "setting": "[4]; [7]", "result": "99.9 ± 35.7", "unit": "µg/kg"}, {"measurement": "Beauvericin level in adipose tissue", "setting": "[4]; [7]", "result": "2600.5 ± 513.9", "unit": "µg/kg"}, {"measurement": "Beauvericin level in feces", "setting": "[4]; [7]", "result": "912.9 ± 256.8", "unit": "µg/kg"}, {"measurement": "Beauvericin level in kidney", "setting": "[4]; [7]", "result": "305.7 ± 151.0", "unit": "µg/kg"}, {"measurement": "Levels of beauvericin in urine", "setting": "[4]; [7]", "result": "below the detection limit"}, {"measurement": "Accumulation in KB-3-1 tumor compared to serum", "setting": "[4]; xenograft model", "result": 1.8, "unit": "fold"}, {"measurement": "Enrichment in colon compared to serum", "setting": "[4]; xenograft model", "result": 3.9, "unit": "fold"}, {"measurement": "Serum level of ALT", "setting": "[5]; [8]", "result": "23.3 ± 0.6", "unit": "U/L"}, {"measurement": "Serum level of AST", "setting": "[5]; [8]", "result": "115.3 ± 66.0", "unit": "U/L"}, {"measurement": "Serum creatinine", "setting": "[5]; [9]", "result": "< 0.5", "unit": "mg/dL"}, {"measurement": "Total bilirubin in serum", "setting": "[5]; [9]", "result": "< 0.5", "unit": "mg/dL"}, {"measurement": "Bilirubin in serum", "setting": "[5]; [10]", "result": "0.6 ± 0.4", "unit": "mg/dL"}, {"measurement": "Serum level of ALT", "setting": "[5]; [10]", "result": "23.1 ± 4.9", "unit": "U/L"}, {"measurement": "Serum level of AST", "setting": "[5]; [10]", "result": "117.3 ± 23.3", "unit": "U/L"}, {"measurement": "Serum creatinine", "setting": "[5]; two weeks after the last treatment, detection limit", "result": "< 0.5", "unit": "mg/dL"}, {"measurement": "Metabolites in mice", "setting": "[6]", "result": "no metabolites of beauvericin could be detected"}]}]}
